Laboratory results taken from publication PMC3376891 (Cell, 2012).

Tests used:
[1] = Far-UV CD spectroscopy of peptides; format: physicochemical; settings: aqueous solution / buffer (Figure S2D)
[2] = ref PDB; cited from earlier work

Secondary structure by far-UV CD [1]: unfolded in our buffer system
Substance: obestatin [Pep6]
Structure according to PDB NMR structures [2]: α helical when present in micelles yet adopts random-coil structure in water
